# Target: T1, rat GALR2 receptor (Rattus norvegicus, UniProt O08726)
# T1 sequence (O08726 1-372): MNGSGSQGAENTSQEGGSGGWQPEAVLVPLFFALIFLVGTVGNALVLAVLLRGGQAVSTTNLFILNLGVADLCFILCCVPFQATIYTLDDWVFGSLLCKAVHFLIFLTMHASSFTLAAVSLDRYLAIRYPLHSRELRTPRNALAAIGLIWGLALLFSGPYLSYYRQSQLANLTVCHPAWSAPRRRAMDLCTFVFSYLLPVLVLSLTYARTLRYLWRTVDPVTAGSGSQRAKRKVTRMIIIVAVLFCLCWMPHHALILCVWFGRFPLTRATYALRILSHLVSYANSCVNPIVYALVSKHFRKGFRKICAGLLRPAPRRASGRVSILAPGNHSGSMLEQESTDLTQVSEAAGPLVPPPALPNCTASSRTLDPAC
# Test: PI hydrolysis in CHO cells stably transfected with rat GALR2 (C-rGalR2-79)
smiles,measurement,value
"CC(C)C[C@H](NC(=O)[C@H](CC(C)C)NC(=O)[C@@H](Cc1c[nH]c2ccccc12)NC(=O)[C@H](Cc1ccccc1)NC(=O)[C@@H](Cc1c[nH]c2ccccc12)NC(=O)[C@H](CCC(N)=O)NC(=O)[C@H](CCC(N)=O)NC(=O)[C@@H]1CCCN1C(=O)[C@H](CCCCN)NC(=O)[C@@H]1CCCN1C(=O)[C@@H](CCCNC(=N)N)NC(=O)[C@@H]1CCCN1C(=O)CNC(=O)[C@H](CC(C)C)NC(=O)[C@H](CC(C)C)NC(=O)[C@H](Cc1ccc(O)cc1)NC(=O)CNC(=O)[C@H](C)NC(=O)[C@H](CO)NC(=O)[C@H](CC(N)=O)NC(=O)[C@H](CC(C)C)NC(=O)[C@@H](NC(=O)[C@H](Cc1c[nH]c2ccccc12)NC(=O)CN)[C@@H](C)O)C(N)=O [Peptide C7, C7]",EC50,11 nM
